Among the data in ChEMBL document CHEMBL5154744, “Stereo-Defined Acyclic Nucleoside Phosphonates are Selective and Potent Inhibitors of Parasite 6-Oxopurine Phosphoribosyltransferases” (J Med Chem, 2022) are Ki values, retold here.

In the assay the target is T1, Hypoxanthine-guanine phosphoribosyltransferase (Homo sapiens, UniProt P00492).
T1 sequence (P00492 whole entry): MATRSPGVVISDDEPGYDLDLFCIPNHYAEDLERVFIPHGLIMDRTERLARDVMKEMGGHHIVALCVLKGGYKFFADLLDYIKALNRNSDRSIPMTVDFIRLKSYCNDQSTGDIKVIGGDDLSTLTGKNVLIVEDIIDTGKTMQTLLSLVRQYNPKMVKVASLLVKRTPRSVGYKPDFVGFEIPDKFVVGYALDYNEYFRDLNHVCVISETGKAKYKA
Kind of assay: Inhibition of human HGPRT using PRib-PP as substrate by spectrophotometric assay.

Consider `O=C(CCP(=O)(O)O)N1CC(OC[C@@H](O)P(=O)(O)O)[C@H](n2cnc3c(=O)[nH]cnc32)C1` (stereo partly specified), for which the affinity corresponds to a Ki of 1.3 nM. This counts as single-digit nanomolar.
